{"source": "paper PMC7771244", "origin": "cited, not measured here", "target": "H4 K16ac peptide (Homo sapiens) (UniProt P62805)", "settings": "cited from earlier work", "data": [{"substance": "BPTF bromodomain (from UniProt Q12830)", "values": [{"measurement": "Kd", "value": 150, "unit": "µM"}]}]}
